We go through 49 compounds from PubChem BioAssay AID540263 (National Center for Advancing Translational Sciences (NCATS), 2011).

By UniProt entry, the sequences of proteins in these tests, tags left out.
UniProt Q14974, whole entry, looked up: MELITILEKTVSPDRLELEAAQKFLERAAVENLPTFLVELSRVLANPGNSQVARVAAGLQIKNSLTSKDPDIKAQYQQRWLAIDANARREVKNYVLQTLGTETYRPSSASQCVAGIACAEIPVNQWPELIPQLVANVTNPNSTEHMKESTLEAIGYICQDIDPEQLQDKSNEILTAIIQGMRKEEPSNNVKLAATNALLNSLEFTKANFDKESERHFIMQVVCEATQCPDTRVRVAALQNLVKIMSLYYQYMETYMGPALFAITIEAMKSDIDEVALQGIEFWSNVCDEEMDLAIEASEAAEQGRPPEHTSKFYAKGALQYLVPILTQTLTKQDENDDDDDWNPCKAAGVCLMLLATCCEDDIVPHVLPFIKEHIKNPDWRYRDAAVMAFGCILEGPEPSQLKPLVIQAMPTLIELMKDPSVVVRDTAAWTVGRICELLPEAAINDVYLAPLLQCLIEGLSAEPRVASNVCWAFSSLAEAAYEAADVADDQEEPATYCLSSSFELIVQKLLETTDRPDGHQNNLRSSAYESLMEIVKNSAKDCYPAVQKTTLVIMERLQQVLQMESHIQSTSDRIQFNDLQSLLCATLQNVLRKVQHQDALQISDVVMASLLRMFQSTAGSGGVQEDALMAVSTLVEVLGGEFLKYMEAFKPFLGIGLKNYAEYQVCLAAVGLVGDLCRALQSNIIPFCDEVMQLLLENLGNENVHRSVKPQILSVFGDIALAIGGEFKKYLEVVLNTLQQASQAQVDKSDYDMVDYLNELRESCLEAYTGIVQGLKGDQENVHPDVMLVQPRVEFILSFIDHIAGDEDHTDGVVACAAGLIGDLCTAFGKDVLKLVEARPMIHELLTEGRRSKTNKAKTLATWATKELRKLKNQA

The campaign covered roughly 340,000 compounds. About 100 (0.029%) were called active. A call without a number means that no potency is given here. Roughly 8% stayed inconclusive and do not appear here. Calls follow the shape of the full dose curve. The sample as a whole holds a higher share of actives than the screen did.
Potency is read from the fitted curve at half-maximal effect; tags tell the direction and shape of the fitted curve.

This assay concerns the target Importin subunit beta-1 (Homo sapiens) (UniProt Q14974). Kind of assay: qHTS Assay for Inhibitors of Rango (Ran-regulated importin-beta cargo) - Importin beta complex formation. Also: nearly all actives have a fitted effect of over 15% in size. As to conditions: Rango CFP/YFP FRET sensor + importin beta, 45 min; series mostly up to 92.2 µM. An excerpt:
NIH Molecular Libraries Probe Production Centers Network [MLPCN] NIH Chemical Genomics Center [NCGC] MLPCN Grant: R03 MH090808-01A1 Assay Submitter (PI): Petr Kalab NCGC Assay Overview: The small GTPase Ran regulates transport of macromolecules between the nucleus and the cytoplasm (nuclear transport) and has important functions in mitotic spindle assembly, nuclear envelope (NE) formation and nuclear pore complex (NPC) assembly. RanGTP gradient is thought to promote spindle assembly by providing a spatial clue to microtubule nucleation and Aurora A activation. Because the localized release and binding of importin alpha cargo relays this spatial clue to SAFs, inhibitors of the Rango - importin beta complex can then be used in further understanding their role in cell cycle specifically in mitosis progression. […] Activation of Aurora A has been linked to different types of cancer and a number of Aurora kinase inhibitors are being developed as potential canter therapeutics therefore, identified inhibitors of this complex could be developed into potential anti-mitotic probes for cancer treatment. Purified recombinant proteins Rango and importin beta were provided by the assay submitter. The assay used a fluorescence resonance energy transfer (FRET) Rango biosensor that contains the IBB of human snurportin 1 flanked by yellow fluorescent protein (EYFP) at the amino terminus and cerulean CFP10 at the carboxy terminus. […] Inhibitors will therefore be identified based on the ability to interfere with the FRET signal decrease. DMSO treated and no importin beta (buffer only) wells were used as negative and positive controls respectively. FRET readings were obtained at two time points. FRET reading prior to importin beta addition (pre-read) were used flag potential compound interference; FRET reading after importin beta addition (post-read) were used to identify inhibitors using the FRET ratio parameter.
NCGC Assay Protocol Summary: Two and a half uL/well of Rango-buffer solution (50 nM Rango, 1x PBS, 1mM DTT, 0.02% Tween-20, 0.1% BSA final concentrations) was dispensed into 1536-well assay plates (Greiner, solid black medium-binding plates) with Aurora Discovery BioRAPTR Flying Reagent Dispenser (FRD; Beckton-Dickenson). Compound solution (23 nL) was transferred to the assay plate using Kalypsys pin tool equipped with a 1536-pin tool and incubated at room temperature for 5 min followed by a FRET pre-read using the PerkinElmer Envision plate reader. Two and a half uL/well of Importin beta - buffer solution (0.125 microM importin beta, 1x PBS, 1mM DTT, 0.02% Tween-20, 0.1% BSA final concentrations) were then added and incubated at room temperature giving a final reaction volume of 5uL. After 45min FRET post-read was obtained via the Envision plate reader using the same optics and settings as the pre-read (CFP/YFP optimized dual optical module D450/D505; excitation mirror CFP 430/24 nm; and emission filters CFP 486/10 nm and YFP 530/10 nm).
For `CCN(CC)S(=O)(=O)c1cccc(NC(=O)c2ccc(S(=O)(=O)N3CCCC3)cc2)c1`, the Potency entry is “inactive”. Consider `O=C(NNc1nc(N2CCCC2)nc(N2CCCC2)n1)c1ccccc1`, for which the Potency result is “inactive”. Take `O=C(NCC1CCCCC1)NCC1CCCCC1`: the Potency result is “inactive”.

As to `Cc1cc(OCCCC(=O)Nc2cc(S(=O)(=O)N3CCOCC3)ccc2N2CCOCC2)ccc1Cl`, the Potency result was “inactive”. Take `C(#CCN1CCOCC1)CCCN1CCOCC1`: the Potency entry is “inactive”.

Consider `c1ccc(C(=NNc2nc3ccccc3s2)c2ccccn2)cc1`, for which the Potency result was “inactive”. With `O=C1C(Cl)=C(Oc2ccccc2)C(=O)c2ccccc21`, the Potency entry was “inactive”.

For `O=C(O)C1C2C=CC(O2)C1C(=O)Nc1ccccn1` (centres undefined), the Potency result was “inactive”. In the case of `O=C1CC[C@@H]2CC3(C[C@@H]4CCN1[C@H]24)Nc1cc([N+](=O)[O-])ccc1NC3=NC1CCCCC1` (some centres undefined), the Potency entry is “inactive”. In the case of `COc1cccc2c1C(=O)c1c(O)c3c(c(O)c1C2=O)CC(O)(C(C)=NNC(=O)c1ccc(Cl)c(Cl)c1)CC3OC1CC(N)C(O)C(C)O1` (centres undefined) it was 14.6 µM (active); in that of `Cc1cccc(NC(=S)N2CCC(C(=O)c3ccc(F)cc3)CC2)c1`, “inactive”; in that of `CCC1([N+](=O)[O-])COC(c2ccc(C)cc2)OC1` (centres undefined), “inactive”.

Consider `COC(=O)c1ccc(NCc2cc(O)ccc2O)cc1`, for which the Potency entry is “inactive”. Take `CC(=O)c1ccc(NC(=O)C(C)OC(=O)c2ccc(NS(=O)(=O)c3ccc4[nH]c(=O)[nH]c4c3)cc2)cc1` (centres undefined): the Potency entry was “inactive”. As for `CCN(CC)CCOc1ccc2c(c1)C(=NNC(=O)c1ccccn1)c1cc(OCCN(CC)CC)ccc1-2`, the Potency was 46.1 µM (active). As for `CCOc1cc2ccccc2cc1C(=O)Nc1ccccn1`, the Potency entry was “inactive”. Take `Cc1cccc(OCC(=O)NCCCNC(=O)c2ccccn2)c1`: the Potency entry is “inactive”. The value for `COC(=O)c1ccc(CNC(=O)Cn2cc(C)c(=O)[nH]c2=O)cc1` was “inactive”; that for `CC(Nc1ccc([N+](=O)[O-])cc1[N+](=O)[O-])c1ccccc1` (centres undefined) was “inactive”. Regarding `CCCN(C(=O)COC(=O)CNS(=O)(=O)c1ccc(NC(C)=O)cc1)C1CCS(=O)(=O)C1` (centres undefined), the Potency entry was “inactive”.

For the compound `CC(=NNC(=S)N1CCCCCC1)c1ccccn1`, the Potency entry was “inactive”. `CCOc1ccc(CCNC(=O)COC(=O)C2CCN(S(=O)(=O)c3ccccc3)CC2)cc1OCC`: the Potency entry is “inactive”. On to `O=C(N/N=C/c1ccc(Cl)c(Cl)c1)c1ccc2nc[nH]c2c1`, for which the Potency result was “inactive”. Turning to `COc1ccc(/C(C)=N/NC(=O)c2ccc3nc[nH]c3c2)cc1`, the Potency entry was “inactive”. As to `CC(=NNC(=O)c1ccc2nc[nH]c2c1)c1ccc(Br)cc1`, the Potency was 51.7 µM (active). Take `COc1ccc(CCN2CC(C(=O)OCC(=O)NCc3ccccc3Cl)CC2=O)cc1OC` (centres undefined): the Potency entry is “inactive”. Take `COc1cc2c(cc1OC)C1C(=O)c3cc(OS(C)(=O)=O)c(OC)cc3C1N(C)C2=O` (centres undefined): the Potency entry was “inactive”. As for `O=C(Cc1ccc(NC(=O)C2CCCN(C(=O)C3CCCCC3)C2)cc1)Nc1cccc(C(=O)N2CCCCC2)c1` (centres undefined), the Potency entry is “inactive”. On to `CCOC(=O)[C@H]1[C@H]2COc3ccc(Br)cc3[C@@H]2N2C(=O)CN(C)C(=O)[C@@]12C`, for which the Potency result was “inactive”.

On to `O=C(NCCc1ccccc1)c1cccc(NC(=O)c2ccccc2)c1`, for which the Potency result was “inactive”. In the case of `CC(=O)CSc1nc(CCc2ccccc2)c(C#N)c(=O)[nH]1` it was “inactive”; in that of `COC1C(CO)OC(n2cnc3c(=S)nc(N)[nH]c32)C1O` (centres undefined), “inactive”.

Turning to `COc1ccc(Cn2cc(CN3CCS(=O)(=O)N(Cc4ccc(-c5cccc(Cl)c5)cc4)C(C)C3=O)nn2)cc1` (centres undefined), the Potency result is “inactive”. Turning to `CCN1C[C@@H]2[C@@H]3C(=O)N(Cc4ccccc4)C(=O)[C@@H]3[C@](C)(C1=O)N2C(=O)c1ccc(C(C)(C)C)cc1`, the Potency entry is “inactive”. Regarding `Cc1cc2c(cc1C)NC1(C[C@H]3CCC(=O)N4CC[C@@H](C1)[C@@H]34)C(=NC(C)(C)CC(C)(C)C)N2` (some centres undefined), the Potency result was “inactive”.

For the compound `O=C(OCCOc1ccccc1F)c1cc(S(=O)(=O)N2CCOCC2)ccc1F`, the Potency result was “inactive”. Regarding `O=C1/C(=C\c2ccc([N+](=O)[O-])cc2)CS(=O)(=O)C/C1=C/c1ccc([N+](=O)[O-])cc1`, the Potency result is “inactive”. Turning to `FC(F)(F)c1ccc(-c2cccc3c2C2CC3CCN2Cc2ccccc2)cc1` (centres undefined), the Potency entry is “inactive”. Turning to `CCOc1ccc(S(=O)(=O)N2CCN(C(=O)c3oc4ccccc4c3C)CC2)cc1`, the Potency entry is “inactive”. Regarding `Cc1nc(N)nc(Cl)c1CCC1OCCO1`, the Potency result is “inactive”. Regarding `Cn1c(=O)[nH]c2c(c(C(=O)O)nn2C)c1=O`, the Potency result was “inactive”.

With `O=C(CC(=O)c1cccnc1)c1ccccc1`, the Potency result was “inactive”. Take `O=C(O)C(c1cccs1)C1(O)CCCCC1` (centres undefined): the Potency result is “inactive”. Turning to `CC(=NNC(=O)c1ccncc1)c1ccc(Cl)c(Cl)c1`, the Potency result was “inactive”. `Cc1ccc2c(O)c(Cc3ccccc3)c(=O)[nH]c2n1`: the Potency entry is “inactive”. As for `COc1ccc(OC)c(Cc2cnc3nc(N)nc(N)c3c2C)c1`, the Potency entry was “inactive”.

As to `O=C1NC(=O)C(CCc2ccccc2)(c2ccccc2)N1` (centres undefined), the Potency entry was “inactive”. In the case of `O=S(=O)(Nc1ccc2ccccc2c1)N1CCCCC1`, the Potency result is “inactive”. In the case of `NC(=O)C1(Nc2ccc([N+](=O)[O-])cc2)CCCC1` it was “inactive”.
